The target of experiment [1] is T1, 5-hydroxytryptamine receptor 4 (Cavia porcellus, UniProt O70528). The experiment is described as follows: 5-hydroxytryptamine 4 receptor agonist activity as increased response to electrical stimulation in guinea pig ileum.
The target in experiment [2] is 5-hydroxytryptamine receptor 4 (Rattus norvegicus, UniProt Q62758). The experiment in a line: Binding affinity against 5-hydroxytryptamine 4 receptor using [3H]GR-113808 as radioligand in rat striatum.
Experiment [3] addresses T1, 5-hydroxytryptamine receptor 4. The experiment in a line: 5-hydroxytryptamine 4 receptor antagonist activity expressed as the concentration which produced a 50% reduction of 5-HT induced contraction in guinea pig ileum.

Amino acid sequences for entries named in this document (tags omitted). A change or cut given only in a name is not applied to a line headed by its entry.
UniProt O70528: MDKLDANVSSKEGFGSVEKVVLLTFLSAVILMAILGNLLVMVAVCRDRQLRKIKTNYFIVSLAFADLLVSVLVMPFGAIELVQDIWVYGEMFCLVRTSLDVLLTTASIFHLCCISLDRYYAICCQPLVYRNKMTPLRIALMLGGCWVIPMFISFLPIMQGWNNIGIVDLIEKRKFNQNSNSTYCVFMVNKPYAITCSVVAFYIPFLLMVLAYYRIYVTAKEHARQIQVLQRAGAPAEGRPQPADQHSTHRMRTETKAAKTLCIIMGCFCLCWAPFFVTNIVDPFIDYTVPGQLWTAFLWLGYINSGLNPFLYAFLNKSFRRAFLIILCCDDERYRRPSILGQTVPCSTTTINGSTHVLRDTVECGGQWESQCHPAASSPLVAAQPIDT
UniProt Q62758: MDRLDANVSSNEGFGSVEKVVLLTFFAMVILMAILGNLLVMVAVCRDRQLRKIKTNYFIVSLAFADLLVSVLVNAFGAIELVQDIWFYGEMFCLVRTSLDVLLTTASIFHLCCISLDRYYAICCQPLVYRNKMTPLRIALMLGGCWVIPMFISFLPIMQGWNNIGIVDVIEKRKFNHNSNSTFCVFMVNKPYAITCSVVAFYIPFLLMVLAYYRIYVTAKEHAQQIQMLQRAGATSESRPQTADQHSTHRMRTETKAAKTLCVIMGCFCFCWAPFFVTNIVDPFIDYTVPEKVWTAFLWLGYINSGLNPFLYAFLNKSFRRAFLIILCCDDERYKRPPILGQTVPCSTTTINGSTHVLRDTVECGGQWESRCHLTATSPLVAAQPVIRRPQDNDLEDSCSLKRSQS

As usually defined, the EC50 is the midpoint of the concentration-response curve. A word on the Ki: it is the dissociation constant of the complex between target and ligand, obtained from inhibition or displacement. In general, IC50 refers to the concentration that inhibits the measured activity by half. Read a low IC50 as greater potency. In experiment [1], `COc1cc(N)c(Cl)cc1C(=O)O[C@H]1CN2CCC1CC2` displayed a 50% effective concentration (EC50) of 0.11 µM. In experiment [2], this compound came in with a Ki of 0.488 µM. Also, half-maximal inhibition in experiment [3] (IC50) was put at 0.03 µM.
The corresponding values for `COc1cc(N)c(Cl)cc1C(=O)O[C@@H]1CN2CCC1CC2` are 0.153 µM, 0.0914 µM and 0.45 µM.

The record behind these values is ChEMBL document CHEMBL1127907, “Design of a potent 5-HT4 receptor agonist with nanomolar affinity” (Bioorg Med Chem Lett, 1994).
